Values of other authors as cited in paper PMC12596218 (Journal of Lipid Research, 2025).

Test system: mAsbt
Conditions: read-out: Km of [14C]TC transport via mAsbt; substrate concentrations 5-40 μM; tested as the radiolabelled form; cited from earlier work

Compound: C[C@H](CCC(=O)NCCS(=O)(=O)O)[C@H]1CC[C@H]2[C@@H]3[C@H](O)C[C@@H]4C[C@H](O)CC[C@]4(C)[C@H]3C[C@H](O)[C@]12C
- Km: 4.3 µM
